Assay results reported in patent US10548896B2, “Treatment of relapsed and/or refractory solid tumors and non-Hodgkin's lymphomas” (CELGENE QUANTICEL RESEARCH, INC., priority 2016, dated 2020).

Experiments:
[1] = test system: ST18 and FREM2 gene expression in MS-1 cells; conditions: 3 days, 0 to 200 nM
MS-1 hMCC cells = assay: cells; conditions: Homo sapiens, 168 h
[2] = test system: ST18 and FREM2 gene expression in MKL-1 cells; conditions: 3 days, 0 to 200 nM
MKL-1 hMCC cells = assay: cells; conditions: Homo sapiens, MKL-1, 168 h

Compound: COc1ccc(-c2c(-c3ccc(C#N)c(F)c3)nc(N3CCC(N)CC3)n(C)c2=O)cc1F [Compound A, 4-[2-(4-amino-piperidin-1-yl)-5-(3-fluoro-4-methoxy-phenyl)-1-methyl-6-oxo-1,6-dihydro-pyrimidin-4-yl]-2-fluoro-benzonitrile]
- EC50 values for modulation of ST18 and FREM2 gene expression [1]: correlated with the IC50 values
- IC50 (MS-1 hMCC cells): < 20 nM
- EC50 values for modulation of ST18 and FREM2 gene expression [2]: correlated with the IC50 values
- IC50 (MKL-1 hMCC cells): < 20 nM
